What is called pIC50 is the negative decadic logarithm of the IC50, by convention in mol/L.

Protein sequences, listed by entry. Tags and fused reporters are not part of them.
UniProt Q9NR19, whole entry: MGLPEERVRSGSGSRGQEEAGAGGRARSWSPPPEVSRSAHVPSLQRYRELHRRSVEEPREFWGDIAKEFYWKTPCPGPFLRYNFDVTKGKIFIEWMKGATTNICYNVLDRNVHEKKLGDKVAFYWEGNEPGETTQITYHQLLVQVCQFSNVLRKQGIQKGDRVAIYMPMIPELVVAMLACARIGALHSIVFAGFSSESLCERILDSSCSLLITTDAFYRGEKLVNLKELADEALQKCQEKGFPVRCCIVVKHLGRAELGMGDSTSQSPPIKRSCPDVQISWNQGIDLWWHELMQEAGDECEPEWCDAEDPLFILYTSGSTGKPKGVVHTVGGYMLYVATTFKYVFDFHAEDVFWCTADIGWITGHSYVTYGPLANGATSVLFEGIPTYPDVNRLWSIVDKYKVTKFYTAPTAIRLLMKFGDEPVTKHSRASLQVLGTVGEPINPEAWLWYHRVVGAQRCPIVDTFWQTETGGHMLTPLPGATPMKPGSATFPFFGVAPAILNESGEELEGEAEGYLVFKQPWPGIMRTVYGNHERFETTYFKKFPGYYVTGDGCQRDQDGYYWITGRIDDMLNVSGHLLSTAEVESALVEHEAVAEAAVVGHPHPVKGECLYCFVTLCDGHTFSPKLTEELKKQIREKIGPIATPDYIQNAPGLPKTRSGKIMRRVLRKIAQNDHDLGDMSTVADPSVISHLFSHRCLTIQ

pIC50: −log10 of the molar value. Bounds are passed on as bounds.

The target in one experiment is T1, Acetyl-coenzyme A synthetase, cytoplasmic (Homo sapiens, UniProt Q9NR19). Kind of experiment: Inhibition of ACSS2 in human HCT116 cells pre-incubated for 2 hrs before [1,2-14C] sodium acetate addition and measured after 3 hrs by [14C]-Acetate uptake assay. Type of experiment: cell-based.
On to `CCn1c(C(O)(c2ccccc2)c2ccccc2)nc2ccc(NC(=O)CNC(C)=O)cc21`, for which the pIC50 is above 7.30.

Compound `CCn1c(C(O)(c2ccc(F)cc2)c2ccc(F)cc2)nc2ccc(C(=O)NCCF)cc21` had a pIC50 above 7.30.

`CCn1c(C(O)(c2ccccc2)c2ccccc2)nc2ccc(C(=O)NCC(C)C#N)cc21` (stereo not given) gave a pIC50 above 7.30.

`CCCC(O)CNC(=O)c1ccc2nc(C(O)(c3ccccc3)c3ccccc3)n(CC)c2c1` (stereo not given): the pIC50 was above 7.30. Regarding `Cn1c(C(O)(c2ccc(F)cc2)c2ccc(F)cc2)nc2ccc(C(=O)NCCF)cc21`, the pIC50 was above 7.30.

`CCn1c(C(O)(c2ccccc2)c2ccccc2)nc2ccc(C(=O)NCCC#N)cc21` gave a pIC50 above 7.30.

As to `CCn1c(C(O)(c2ccccc2)c2ccccc2)nc2ccc(C(=O)NCC#N)cc21`, the pIC50 is above 7.30.

In another experiment the target is T1, Acetyl-coenzyme A synthetase, cytoplasmic. Kind of experiment: Inhibition of N-terminal 6x-histidine tagged human ACSS2 expressed in insect cells assessed as reduction in pyrophosphate production using CoA and ATP incubated for 30 mins by pyrophosphatase coupled enzymatic assay.
In the case of `CCn1c(C(O)(c2ccccc2)c2ccccc2)nc2ccc(C(=O)Nc3cc(OC)c(OC)c(OC)c3)cc21`, the pIC50 is above 7.30.

`CCn1c(C2(O)c3ccccc3Oc3ccccc32)nc2ccc(C(=O)NC[C@@H](C)O)cc21`: the pIC50 is below 6.00. Take `CCn1c(C(O)(c2ccccc2)c2ccccc2)nc2c(OC)nccc21`: the pIC50 was below 6.00.

`CCn1c(C(O)(c2ccccc2)c2ccccc2)nc2c(F)cc(C#N)cc21`: the pIC50 is below 6.00. Same read-out and setting: the value for `CCn1c(C(O)(c2ccccc2)c2ccccc2)nc2cc(O)ccc21` was below 6.00; that for `CCn1ccc(NC(=O)c2ccc3nc(C(O)(c4ccccc4)c4ccccc4)n(C4COC4)c3c2)n1` was below 6.00.

In the case of `CCn1c(C(O)(c2ccccc2)c2ccccc2)nc2c(OC)cc(C)cc21`, the pIC50 is below 6.00.

`Cc1ccc2nc(C(O)(CO)c3ccccc3)n(C)c2c1` (stereo not given): the pIC50 is below 6.00.

(Values after ChEMBL document CHEMBL4476868, “Benzimidazole derivatives and uses thereof” (2017).)
